These results are taken from ChEMBL document CHEMBL4431320 (J Med Chem, 2016).

By UniProt entry, the sequences of proteins in these tests, tags left out.
UniProt P06276, whole entry: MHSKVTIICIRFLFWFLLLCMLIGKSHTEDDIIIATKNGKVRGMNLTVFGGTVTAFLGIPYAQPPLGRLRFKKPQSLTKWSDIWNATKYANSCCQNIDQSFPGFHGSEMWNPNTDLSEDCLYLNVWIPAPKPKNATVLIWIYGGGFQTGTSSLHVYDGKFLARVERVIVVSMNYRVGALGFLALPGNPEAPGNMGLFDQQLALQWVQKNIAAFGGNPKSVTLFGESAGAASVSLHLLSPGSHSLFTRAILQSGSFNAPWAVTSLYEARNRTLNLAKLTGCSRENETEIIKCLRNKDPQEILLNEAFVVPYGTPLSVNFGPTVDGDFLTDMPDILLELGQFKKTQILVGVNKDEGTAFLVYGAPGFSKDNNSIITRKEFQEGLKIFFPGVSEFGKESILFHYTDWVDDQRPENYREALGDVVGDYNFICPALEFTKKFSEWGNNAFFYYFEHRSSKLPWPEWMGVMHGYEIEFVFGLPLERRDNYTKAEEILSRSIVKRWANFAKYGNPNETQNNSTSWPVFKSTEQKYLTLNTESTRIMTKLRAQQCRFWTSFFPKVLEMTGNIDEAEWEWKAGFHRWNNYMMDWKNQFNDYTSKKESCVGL

pIC50: −log10 of the molar value.

In the experiment the target is Cholinesterase (Homo sapiens, UniProt P06276).

Molecule `CCN(C)C(=O)Oc1cccc([C@H](C)N(C)C)c1` [RIVASTIGMINE] showed a negative-log IC50 (pIC50) of 6.10.

For orientation: pIC50 means the negative decadic logarithm of the IC50, by convention in mol/L.
